Measurements: publication PMC9325670, “Limited nutrient availability in the tumor microenvironment renders pancreatic tumors sensitive to allosteric IDH1 inhibitors” (Nature Cancer, 2022)

Protein sequences, listed by entry. Tags and fused reporters are not part of them. Residues count along the entry.
UniProt O75874, 2-414: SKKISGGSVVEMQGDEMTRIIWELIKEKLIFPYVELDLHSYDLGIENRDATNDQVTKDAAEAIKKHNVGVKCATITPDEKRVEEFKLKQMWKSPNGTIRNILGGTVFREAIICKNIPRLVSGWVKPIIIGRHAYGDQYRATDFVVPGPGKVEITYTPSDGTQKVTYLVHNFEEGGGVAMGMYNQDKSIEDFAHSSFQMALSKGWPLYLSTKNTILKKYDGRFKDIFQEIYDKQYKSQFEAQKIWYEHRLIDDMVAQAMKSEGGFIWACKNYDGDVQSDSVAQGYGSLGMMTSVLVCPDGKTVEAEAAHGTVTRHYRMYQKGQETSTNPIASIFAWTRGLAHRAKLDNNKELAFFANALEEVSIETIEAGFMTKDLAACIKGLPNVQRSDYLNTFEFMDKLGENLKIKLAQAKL

Target: T1, wild-type isocitrate dehydrogenase 1 (wtIDH1) (Homo sapiens, UniProt O75874)
T1 construct: gene IDH1; human recombinant IDH1
Assay: cell-free fluorometric NADPH formation assay at […] Mg2+
Format: biochemical

C[C@H](O)c1cccc(NC(=O)c2nn(Cc3ccc(F)cc3)c3c2CN(C(=O)c2ccc[nH]2)C[C@H]3C)c1 [GSK321]
IC50: 2.07 nM
